This is a selection: effects in other tests are not listed, and their absence says nothing.
Molecular target: Acetylcholinesterase (Homo sapiens, UniProt P22303)
Assay: Inhibition of AChE in human erythrocytes using acetylthiocholine as substrate measured for 1 min

Amino acid sequences for entries named in this document (tags omitted). Residues count along the entry.
UniProt P22303, 32-614 limits assumed: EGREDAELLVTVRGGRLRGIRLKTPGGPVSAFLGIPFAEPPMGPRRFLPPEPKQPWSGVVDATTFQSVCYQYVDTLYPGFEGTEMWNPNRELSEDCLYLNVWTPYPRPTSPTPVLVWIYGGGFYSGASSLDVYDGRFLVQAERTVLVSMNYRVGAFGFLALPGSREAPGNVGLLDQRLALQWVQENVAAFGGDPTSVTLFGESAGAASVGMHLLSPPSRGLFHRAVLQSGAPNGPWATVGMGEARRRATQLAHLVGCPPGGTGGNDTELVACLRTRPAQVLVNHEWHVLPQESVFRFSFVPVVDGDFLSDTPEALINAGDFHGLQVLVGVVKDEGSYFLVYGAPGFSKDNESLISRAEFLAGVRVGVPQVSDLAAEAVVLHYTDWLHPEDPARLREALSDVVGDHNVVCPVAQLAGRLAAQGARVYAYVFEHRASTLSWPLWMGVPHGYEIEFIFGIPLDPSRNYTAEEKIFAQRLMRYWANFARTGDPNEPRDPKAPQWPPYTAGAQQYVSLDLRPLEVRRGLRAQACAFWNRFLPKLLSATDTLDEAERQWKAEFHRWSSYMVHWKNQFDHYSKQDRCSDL

CCOP(=O)(OCC)Oc1ccc(N)cc1CN1CCCC1
Ki: 1.9 ×10⁴ /M/min

Source: ChEMBL document CHEMBL4270596, “Discovery of a potent non-oxime reactivator of nerve agent inhibited human acetylcholinesterase” (2018)
